According to publication doi:10.1101/2025.02.03.636340 (bioRxiv, 2025):

Target: SNAP-β2AR (human beta-2 adrenergic receptor) (human, UniProt P07550, SNAP tag labelled with SBG-JF646)
Test: single molecule pulldown

B1: β-arr1-ΔCTD-Halo (rat beta-arrestin 1 lacking the autoinhibitory C-terminal domain, aa 383-418) (domain or fragment)
chain: MGDKGTRVFKKASPNGKLTVYLGKRDFVDHIDLVDPVDGVVLVDPEYLKERRVYVTLTCAFRYGREDLDVLGLTFRKDLFVANVQSFPPAPEDKKPLTRLQERLIKKLGEHAYPFTFEIPPNLPCSVTLQPGPEDTGKACGVDYEVKAFCAENLEEKIHKRNSVRLVIRKVQYAPERPGPQPTAETTRQFLMSDKPLHLEASLDKEIYYHGEPISVNVHVTNNTNKTVKKIKISVRQYADICLFNTAQYKCPVAMEEADDTVAPSSTFCKVYTLTPFLANNREKRGLALDGKLKHEDTNLASSTLLREGANREILGIIVSYKVKVKLVVSRGGLLGDLASSDVAVELPFTLMHPKPKEEPPHREVPESETPVDTNLIELDTN
modifications: Halo tag labelled with CA-JF549 (or a mix of CA-JF549 and CA-JF646)
- % colocalization: ~20%
